Assay results published in patent US20230219979A1, “PYRAZOLO[1,5-a]PYRIDINE COMPOUND, PREPARATION METHOD THEREFOR AND USE THEREOF” (SHENZHEN ZHONGGE BIOLOGICAL TECHNOLOGY CO., LTD., priority 2019, published 2023).

By UniProt entry, the sequences of proteins in these tests, tags left out. Residues count along the entry.
UniProt P07949, 29-1114: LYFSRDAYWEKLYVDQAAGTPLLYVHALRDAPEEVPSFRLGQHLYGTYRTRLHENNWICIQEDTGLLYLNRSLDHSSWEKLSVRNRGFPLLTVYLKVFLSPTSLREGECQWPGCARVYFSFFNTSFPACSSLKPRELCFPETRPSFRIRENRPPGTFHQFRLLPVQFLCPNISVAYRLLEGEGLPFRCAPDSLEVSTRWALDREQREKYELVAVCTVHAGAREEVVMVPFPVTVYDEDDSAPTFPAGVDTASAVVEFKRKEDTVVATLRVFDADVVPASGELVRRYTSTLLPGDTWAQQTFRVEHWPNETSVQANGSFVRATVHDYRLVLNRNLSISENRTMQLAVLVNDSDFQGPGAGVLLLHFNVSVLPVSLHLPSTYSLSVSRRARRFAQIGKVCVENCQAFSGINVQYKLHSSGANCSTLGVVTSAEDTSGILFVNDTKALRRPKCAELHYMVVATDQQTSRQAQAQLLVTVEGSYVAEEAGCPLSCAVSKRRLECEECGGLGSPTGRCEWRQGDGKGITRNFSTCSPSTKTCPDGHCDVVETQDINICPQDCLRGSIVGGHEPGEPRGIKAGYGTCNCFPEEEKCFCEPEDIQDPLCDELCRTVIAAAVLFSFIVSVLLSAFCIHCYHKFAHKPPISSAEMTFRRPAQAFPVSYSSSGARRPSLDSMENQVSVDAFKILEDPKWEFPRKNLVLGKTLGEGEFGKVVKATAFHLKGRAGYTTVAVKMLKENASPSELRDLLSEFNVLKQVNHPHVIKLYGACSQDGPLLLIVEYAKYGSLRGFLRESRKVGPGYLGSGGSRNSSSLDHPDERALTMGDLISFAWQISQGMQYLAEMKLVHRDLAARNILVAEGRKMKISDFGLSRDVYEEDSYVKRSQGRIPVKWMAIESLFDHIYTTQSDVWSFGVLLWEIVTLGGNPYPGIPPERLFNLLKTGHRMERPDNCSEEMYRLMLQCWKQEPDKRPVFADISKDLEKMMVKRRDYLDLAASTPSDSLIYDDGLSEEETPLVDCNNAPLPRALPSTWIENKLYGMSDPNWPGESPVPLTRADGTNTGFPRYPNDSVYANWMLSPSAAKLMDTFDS

Molecular target: Wild-type RET kinase (Homo sapiens, UniProt P07949)
Assay: HTRF method for testing the inhibitory activity of compounds against RET
Format: biochemical

With “4-(6-(4-(6-methoxypyridin-3-yl)piperazin-1-yl)pyridin-3-yl)-N,N-dimethyl-6-(1-methyl-1H-pyrazol-4-yl)H-pyrazolo[1,5-a]pyridine-3-carboxamide [Compound 2]” the IC50 was > 10 µM.
